Values of other authors as cited in US11466029B2, “Compounds useful to treat influenza virus infections” (Nanjing Zhengxiang Pharmaceuticals Co., Ltd., priority 2019, dated 2022).

Experiments:
[1] = rat, in vivo; cited from earlier work
[2] = monkey, in vivo; cited from earlier work

For `COC(=O)OCOc1c2n(ccc1=O)N([C@@H]1c3ccccc3SCc3c1ccc(F)c3F)[C@@H]1COCCN1C2=O` [baloxavir marboxil], the “oral bioavailability of baloxavir” value [1] is listed as 9.8-14.7% and the “effect of feeding conditions on oral bioavailability of baloxavir” value [2] is listed as “largely affected by feeding conditions”.
